The source of these data is ChEMBL document CHEMBL1154758, “The coumarin-binding site in carbonic anhydrase accommodates structurally diverse inhibitors: the antiepileptic lacosamide as an example and lead molecule for novel classes of carbonic anhydrase inhibitors” (J Med Chem, 2010).

The target in the assay is Carbonic anhydrase 2 (Homo sapiens, UniProt P00918). As to the kind of experiment: Inhibition of human recombinant CA2 by stopped flow CO2 hydrase assay.

The structures appear in SMILES notation.

Take `COC[C@@H](NC(C)=O)C(=O)NCc1ccccc1` [LACOSAMIDE]: the Ki (as a rule, a measure of affinity in units of concentration, obtained from inhibition or displacement) came out at 331 nM.
